Publication PMC4354951 (European journal of medicinal chemistry, 2008)

Chains of the proteins cited; added tags and fusions are not shown. Residues count along the entry.
UniProt P19111, 20-533: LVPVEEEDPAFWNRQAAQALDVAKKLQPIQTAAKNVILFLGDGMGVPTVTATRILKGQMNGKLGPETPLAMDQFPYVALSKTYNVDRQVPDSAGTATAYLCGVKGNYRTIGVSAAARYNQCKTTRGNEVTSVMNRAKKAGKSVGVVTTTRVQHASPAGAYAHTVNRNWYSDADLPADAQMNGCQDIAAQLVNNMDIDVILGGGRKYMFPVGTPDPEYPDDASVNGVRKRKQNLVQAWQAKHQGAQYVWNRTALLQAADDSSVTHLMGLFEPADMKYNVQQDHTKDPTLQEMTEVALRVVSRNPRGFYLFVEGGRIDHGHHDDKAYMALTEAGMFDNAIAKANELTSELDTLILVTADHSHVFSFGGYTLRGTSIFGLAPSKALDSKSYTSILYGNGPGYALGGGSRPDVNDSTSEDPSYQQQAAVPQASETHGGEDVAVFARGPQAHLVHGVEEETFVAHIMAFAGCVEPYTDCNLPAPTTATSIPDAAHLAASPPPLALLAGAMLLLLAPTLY

Target: calf intestine alkaline phosphatase (Bos taurus, UniProt P19111)
Details: 37 °C

2-MeS–ATP-α-B [1A]
fraction remaining after incubation with alkaline phosphatase (12 min, 0.25 U alkaline phosphatase): 40%
amount remaining after incubation with alkaline phosphatase (100 min, HPLC-MS): only traces
